Yeast mating assay 2: variants of the scFv Ab-95

The target is the same throughout: PDVDLGDISGINAS, from the HR2 region of SARS-CoV-2 spike.

Ab-95 is the parent antibody, in scFv form: VH, then three GGGGS repeats, then VL. The heavy chain is unchanged in all variants.
VH: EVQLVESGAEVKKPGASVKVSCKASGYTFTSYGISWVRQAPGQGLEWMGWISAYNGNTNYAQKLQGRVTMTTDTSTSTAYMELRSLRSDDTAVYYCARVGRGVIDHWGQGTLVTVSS
VL: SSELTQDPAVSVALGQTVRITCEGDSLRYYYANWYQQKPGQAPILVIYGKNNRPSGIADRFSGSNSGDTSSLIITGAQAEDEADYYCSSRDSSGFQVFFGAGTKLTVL

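The starting antibody came from a phage panning campaign against this peptide. The library (AAYL52) carries one to three amino acid substitutions per variant, with no insertions or deletions. The scFvs were displayed on barcoded MATa yeast, the peptide on MATalpha yeast. Mating (16 h, 30 °C) was followed by selection of diploids and sequencing of their barcodes. The ratio of observed to expected reads was calibrated, replicate by replicate, on BCL2-family standards whose Kd was known from biolayer interferometry. Mating was done three times.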

Each variant is given by its three light chain CDRs, as the data file delimits them; those of the parent are EGDSLRYYYAN, GKNNRPS, SSRDSSGFQVF.
Affinities are written as log10 Kd with Kd in nM; a lower number is a better binder.
A pair that was not seen in that replicate is written "nd"; this usually means weak binding, but a binder can also be missed.
As a blank, each scFv also met three strains without target: over library AAYL52, 28% of these pairings were detected, typically at 3.91 and seldom below 2.90. Also given: how often the same scFv was detected with the empty control strains, with their mean in brackets.

CDR-L1,CDR-L2,CDR-L3,"log10 Kd, replicates",empty controls
IGDSLEYYYAN,GKNNRPS,SSRESSGFQVF,3.21 / 2.92 / nd,4/9 (3.87)
EGDSVRYYYAN,GKNNRPS,SSRDSIGFQVF,3.26 / 3.26 / 2.44,1/9 (3.35)
EGDSLRYYYAN,GNNNRPS,SSQDSSGFRVF,1.56 / 1.58 / 0.99,4/9 (4.06)
EGDSLRYYYAN,GKGNRIE,SSRDSSGFQVF,3.00 / 2.83 / 2.45,0/9
TGDSLRYYYAN,EVNNRPS,SSRDSSGFQVF,3.67 / nd / nd,0/9
NGDSYRYYYAF,GKNNRPS,SSRDSSGFQVF,2.62 / 2.38 / 2.42,1/9 (2.95)
EGWSLRYYYAN,WKNNRPS,SSRDSSGFQVF,nd / nd / 4.03,3/9 (4.24)
EGDSLRYYYAN,GKNNRPM,SSRFSWGFQVF,4.31 / nd / nd,0/9
EGVSLRYYGAN,GKNNRPS,SSRDSSGFQVF,1.90 / 1.69 / 1.68,4/9 (4.04)
EGGSLRYYYAN,GKNMRPS,SSRDWSGFQVF,2.22 / 2.55 / 1.61,2/9 (4.19)
EGDSLRSYYAN,GKNNRPS,SSRDSSGYQVF,1.52 / 1.48 / 1.11,4/9 (3.97)
EGDSLRYLYAN,GKNNRPS,MIRDSSGFQVF,2.87 / 3.24 / 2.46,3/9 (4.11)
EGDSLRYYYAN,GVNNRPS,SSRDSSYFQVR,2.90 / 2.87 / 4.35,2/9 (4.47)
EGDSLRYRYAN,GKNNRPS,NSRDESGFQVF,1.22 / 1.27 / 0.59,3/9 (3.98)
EADSLRYKYAN,GKNNRPS,CSRDSSGFQVF,2.82 / 3.09 / 2.92,2/9 (4.63)
EGDSLRYYYAN,GKNNRPR,SSRDSSWFQVF,3.50 / nd / 2.97,3/9 (3.19)
EGDSLRNYLAN,GKNNRPS,SSRDSSGFQAF,1.78 / 1.60 / 1.37,3/9 (4.07)
EGDSLRYGYAN,GKNNRPS,SSRDSGGFQTF,1.03 / 0.79 / 0.46,4/9 (4.23)
EGDSLRYYYAN,GKNHRPR,NSRDSSGFQVF,nd / nd / 3.23,4/9 (4.47)
EGDSNRYMYAN,GKNNRPS,FSRDSSGFQVF,3.13 / nd / nd,4/9 (3.85)
EGDSLRYYYAA,GKNNRPS,SSRDSSGFQVF,4.31 / 4.58 / 3.08,4/9 (3.87)
EGDYLRYYYAN,GKNNRES,SHRDSSGFQVF,3.38 / 3.36 / 2.81,2/9 (4.09)
EGDSLNYYYAN,GKNNRPS,SSFDSSGFQMF,2.50 / 2.37 / 2.54,3/9 (4.64)
ECDSLRYYYAN,GKNNRPS,NSRDSSGFAVF,2.05 / 2.44 / 2.83,2/9 (3.60)
EYDSLRYYYAN,GDNNRPS,SSRDSSGFPVF,3.15 / 3.51 / 2.47,2/9 (3.65)
EGDSLRFYYAN,GKNNRPS,SSRHASGFQVF,3.00 / 3.23 / 2.54,2/9 (4.07)
EGDSLRYYYAN,GKNNRPS,SSRDSGGFFIF,3.96 / 3.14 / nd,2/9 (4.16)
EADSLRYYYAN,GKNNRPQ,SSRASSGFQVF,2.58 / 3.33 / 4.19,1/9 (3.37)
EGDSTRYYYAN,GKNNRPS,SSNDSSGFQVN,nd / nd / nd,0/9
EGDSLRYYYAN,GKNNRPS,SSRDKSMFQVW,2.16 / 2.19 / 3.38,3/9 (4.41)
EGDSLRYLYAN,GKINRPV,SSRDSSGFQVF,nd / nd / 3.65,2/9 (4.35)
EGDSLRYYYNN,GKNNRPS,SSCDSPGFQVF,3.45 / nd / 3.74,4/9 (3.60)
EGDSGRYYFAN,GKNNAPS,SSRDSSGFQVF,4.41 / nd / nd,1/9 (4.54)
EGDSLKTYRAN,GKNNRPS,SSRDSSGFQVF,1.82 / 1.81 / 1.44,2/9 (3.65)
EGTSLPYQYAN,GKNNRPS,SSRDSSGFQVF,1.17 / 1.17 / 0.71,3/9 (3.36)
EADSLRYYYAG,GKNNDPS,SSRDSSGFQVF,3.35 / 4.12 / 4.25,3/9 (4.04)
HGDSLRYYYAA,GKNNLPS,SSRDSSGFQVF,nd / nd / nd,0/9
EGDQERYYYAN,GKNNRPS,SSRDSSPFQVF,nd / 5.86 / nd,1/9 (3.47)
EGDSLRQYYAN,GKNNRPS,SSRDSSVFQVF,1.85 / 2.29 / 1.89,1/9 (3.52)
EGDTLRYYYAN,GKNNRPS,SSIMSSGFQVF,nd / nd / 3.76,4/9 (4.19)
EGRSLRYFYAN,GKNCRPS,SSRDSSGFQVF,4.76 / nd / nd,4/9 (4.20)

Top 3 of the variants detected in all replicates, tightest first:

{"CDR-L1": "EGDSLRYGYAN", "CDR-L2": "GKNNRPS", "CDR-L3": "SSRDSGGFQTF", "log10 Kd, replicates": "1.03 / 0.79 / 0.46", "empty controls": "4/9 (4.23)"}
{"CDR-L1": "EGTSLPYQYAN", "CDR-L2": "GKNNRPS", "CDR-L3": "SSRDSSGFQVF", "log10 Kd, replicates": "1.17 / 1.17 / 0.71", "empty controls": "3/9 (3.36)"}
{"CDR-L1": "EGDSLRYRYAN", "CDR-L2": "GKNNRPS", "CDR-L3": "NSRDESGFQVF", "log10 Kd, replicates": "1.22 / 1.27 / 0.59", "empty controls": "3/9 (3.98)"}

Values reported by Engelhart et al. 2022, doi:10.1038/s41597-022-01779-4 (FLAb copy).